The record followed here is PubChem BioAssay AID504692 (The Scripps Research Institute Molecular Screening Center, 2011).

Sequences of proteins named here, by UniProt entry; tags and fusion partners are left off.
UniProt P47898, whole entry, looked up: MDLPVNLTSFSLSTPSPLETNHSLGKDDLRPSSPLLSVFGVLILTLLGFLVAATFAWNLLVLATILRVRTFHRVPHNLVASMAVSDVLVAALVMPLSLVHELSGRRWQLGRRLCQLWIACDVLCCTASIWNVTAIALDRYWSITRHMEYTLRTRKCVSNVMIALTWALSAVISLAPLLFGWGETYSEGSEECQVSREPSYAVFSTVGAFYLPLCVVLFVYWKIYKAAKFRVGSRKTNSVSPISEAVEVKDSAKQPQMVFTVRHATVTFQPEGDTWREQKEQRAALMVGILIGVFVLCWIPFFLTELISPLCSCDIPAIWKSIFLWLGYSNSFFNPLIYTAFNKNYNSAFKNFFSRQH

The list shows a part of the results, in another mix than the full data. Calls of active or inactive are those of the source. Rule as the data show it: active = activation mostly above about 9.5% (no sharp cut-off); inactive = mostly below about 7.6%.

For this experiment, the target named is 5-hydroxytryptamine receptor 5A (Homo sapiens) (UniProt P47898). Kind of experiment: HTR5A agonists in luminescence cell assay, primary screen, counter-screen for OPRM1-OPRD1 heterodimer agonist project, full-deck HTS (AID 504692).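 Also: 0% = cells with vehicle only and 100% = reference agonist.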 The note with it: cell-based, at 9.3 µM, active compounds read high.
On to `CCN(CC)CCn1c(=N)n(CCOc2ccccc2)c2ccccc21`, for which the activation is inactive: -1.14%.
As for `CC(C)(C)NC(=O)Cn1c(SCC(=O)NC2CCCC2)nc2ccccc21`, the figure is inactive: 0.15%.
As for `CCN(N=Nc1nonc1N)c1nonc1N`, the activation is inactive: -3.91%.
With `CCC(=O)N(c1ccccc1)C1CCCCC1`, the activation was inactive: -3.37%.
On to `Cn1c(=O)c2c(nc(NCc3ccccc3)n2CC(=O)NCc2ccccc2)n(C)c1=O`, for which the activation is inactive: 2.66%.
In the case of `Nc1cccc2ccc([As](=O)(O)O)cc12`, the activation is inactive: 0.47%.
As for `O=C(Cn1cnc2ccccc21)Nc1cccc([N+](=O)[O-])c1`, the figure is inactive: 5%; as for `CC1CCCCN1C(=O)CSc1nc2ccccc2n1CC(=O)N1CCc2ccccc21` (configuration not stated), inactive: 0.22%; as for `O=C(Cn1c(SCC(=O)N2CCc3ccccc3C2)nc2ccccc21)NC1CCCC1`, inactive: 6.1%.
For `Cn1c(=O)n(CC(=O)NCc2cccnc2)c2ccccc21`, the activation is inactive: -1.93%.
Then `O=C(CCCCCNC(=O)N1CCn2c1nc1ccccc12)N[C@@H](Cc1ccccc1)C(=O)O`, with inactive: 8.8%; and `Nc1ncnc2c1ncn2C1OC(CO)C(O)C1N` (configuration not stated), with inactive: -1.48%.
As for `CC(C)C[C@H](NC(=O)N1CCn2c1nc1ccccc12)C(=O)N1CCCCC1`, the figure is active: 8.73%; as for `CN1C(=O)Cn2c1nc1ccccc12`, inactive: 1.13%; as for `C[C@H](O)[C@@H]1C(=O)N2CCc3ccc(N4CCOCC4)cc3[C@@H]2C[C@@H]1N(C)C(=O)Nc1ccccc1`, inactive: -0.57%.
For `CC(C)CSc1nc2ccccc2n1CC(N)=O`, the activation is inactive: 0.3%.
For the compound `Cn1c(=O)c2ncn(CC(=O)Nc3ccc4c5c(cccc35)CC4)c2n(C)c1=O`, the activation was inactive: 6.19%.
Then `CC(=O)Nc1ccc([As](=O)(O)O)cc1`, with inactive: 2.19%; and `O=C(Cn1c(NCCO)nc2ccccc21)NCC(F)(F)F`, with inactive: 3.57%.
As for `Cc1ccc2c(c1)C1CN(C)CCC1N2C(=O)c1ccccc1NS(=O)(=O)c1ccc(F)cc1` (configuration not stated), the figure is inactive: -0.1%.
As for `CCOc1cccc(N2C(=O)CC(n3cnc4ccccc43)C2=O)c1` (configuration not stated), the figure is inactive: -0.4%; as for `O=C(Cn1c(COc2ccccc2)nc2ccccc21)Nc1cc(Cl)cc(Cl)c1`, inactive: 8.35%; as for `O=C(O)c1ccccc1[As](=O)(O)O`, inactive: 1.58%.
On to `COc1ccc(N2CCN(C(=O)Cn3cnc4c3c(=O)n(C)c(=O)n4C)CC2)cc1`, for which the activation is inactive: -1%.
Then `Cn1c(=O)n(CCN2CCOCC2)c(=O)c2c1nc1n2CCN1c1ccc(Oc2ccccc2)cc1`, with inactive: -0.49%; and `Cn1c(=O)c2c(ncn2CC(=O)NC[C@H]2O[C@@H](n3cnc4c(N)ncnc43)[C@H](O)[C@@H]2O)n(C)c1=O`, with inactive: 0.68%.
Then `CCCC1OP(N)(=O)OCC1CC` (configuration not stated), with inactive: -2.36%; and `O=C(Cn1cnc2ccccc21)NCc1ccccc1`, with inactive: 4.57%; and `COc1ccc(CN(C)C(=O)Cn2cnc3c(OCc4ccccc4)ncnc32)cc1OC`, with inactive: -0.58%.
For `CC(C)[C@H](NC(=O)N1CCn2c1nc1ccccc12)C(=O)NCc1ccccc1Cl`, the activation was inactive: 3.82%.
Then `Cc1ccc(C)c(S(=O)(=O)N2CCN(C(=O)Cn3c(C(F)(F)F)nc4ccccc43)CC2)c1`, with inactive: -0.3%; and `Cc1ccc(CNC(=O)Cn2cnc3c(NCc4ccccc4)ncnc32)o1`, with inactive: -2.99%.
For the compound `Cc1ccc(-c2csc(NCCn3c(-c4ccncc4)nc4ccccc43)n2)cc1`, the activation was inactive: 1.98%.
On to `C(=N\c1nc2ccccc2n1CCN1CCCCC1)/c1ccc2c(c1)OCO2`, for which the activation is inactive: -0.58%.
Then `CC(C)NC(=O)CC1C(=O)N(Cc2ccccc2)C(C)c2nc3ccccc3n21` (configuration not stated), with inactive: 4.64%.
For `CCOC(=O)c1ccccc1NC(=O)Cn1c(-c2nonc2N)nc2ccccc21`, the activation is inactive: 6.88%.
Regarding `O=P(Nc1nc2ccc(Cl)cc2s1)(c1ccccc1)c1ccccc1`, the activation was inactive: -5.54%.
Regarding `O=C(Cn1c(Cc2ccccc2)nc2ccccc21)NCc1ccc2c(c1)OCO2`, the activation was inactive: -0.9%.
For the compound `O=C(Cn1cnc2c(NCc3ccccc3)ncnc21)NCc1nc2ccccc2[nH]1`, the activation was inactive: -1.68%.
Then `CC1CCN(C(=O)Cn2c(SCC(=O)Nc3nccs3)nc3ccccc32)CC1`, with inactive: -1.68%.
As for `COC(=O)c1ccc(CNC(=O)Cn2cnc3c(OCc4ccccc4)ncnc32)cc1`, the figure is inactive: 5.17%.
As for `COC(=O)C1=C(C)N=C2SCCC(=O)N2C1/C=C/c1ccccc1` (configuration not stated), the figure is inactive: -0.86%; as for `Cc1cccc(OCC(O)Cn2c(=N)n(CCN3CCOCC3)c3ccccc32)c1` (configuration not stated), inactive: -1.46%; as for `Cc1cc(SC(NC(=O)c2ccc(F)cc2)C(Cl)(Cl)Cl)ncn1` (configuration not stated), inactive: 2.97%.
Take `O=C(CSc1nc2ccccc2n1CC(=O)N1CCCC1)NCc1ccc2c(c1)OCO2`: the activation is inactive: -3.07%.
With `CCOP(=O)(Nc1ccccc1)OCC`, the activation was inactive: -2.76%.
For `CCC(=O)Nc1nc2ccccc2n1CCN1CCOCC1`, the activation was inactive: 6.2%.
As for `Cc1csc2c(NC3CCN(Cc4ccccc4)CC3)ncnc12`, the figure is inactive: 5.96%; as for `O=C(Cn1c(/C=C/c2ccccc2)nc2ccccc21)Nc1ccc(F)cc1`, inactive: 0.41%; as for `CCOc1ccc2nc(NC(=O)Cn3cnc4c3c(=O)n(C)c(=O)n4C)sc2c1`, inactive: 8.02%.
For the compound `Cn1c(=O)c2c(ncn2CC(=O)Nc2nc3ccc(F)cc3s2)n(C)c1=O`, the activation was inactive: 5.14%.
`CN(C(=O)Cc1ccc(Cl)c(Cl)c1)[C@H]1CCCC[C@@H]1N1CCCC1`: the activation is inactive: -3.39%.
As for `Cc1ccc(NP(=O)(Oc2ccccc2F)Oc2ccccc2F)nc1`, the figure is inactive: 1.08%.
As for `c1ccc(CN2CCC(Nc3nc(-c4cccs4)nc4ccccc34)CC2)cc1`, the figure is inactive: 11.3%; as for `Cc1cccc(NC(=O)Cn2c(=O)n(C)c3ccccc32)c1`, inactive: 0.38%.
Regarding `COc1ccc(NC2CCN(C3CC(=O)N(c4ccc(F)c(Cl)c4)C3=O)CC2)cc1` (configuration not stated), the activation was inactive: -3.19%.
Take `O=C(Cn1c(COc2ccccc2)nc2ccccc21)Nc1cccc(Cl)c1`: the activation is active: 12%.
As to `C[C@@H](NC(=O)Cn1cnc2c(NCc3ccccc3)ncnc21)c1cccc2ccccc12`, the activation is inactive: 0.92%.
With `CCCCOC(=O)Cn1c(=N)n(CCN(CC)CC)c2ccccc21`, the activation was inactive: 0.49%.
Then `O=C(Cn1cnc2c(OCc3ccccc3)ncnc21)NCCN1CCOCC1`, with inactive: 3.15%.
As for `COCCCNC(=O)CC1C(=O)N(Cc2ccccc2)C(C)c2nc3ccccc3n21` (configuration not stated), the figure is inactive: -5.99%; as for `CCc1cccc(CC)c1NC(=O)Cn1c(-c2ccccc2Cl)nc2ccccc21`, inactive: -4.2%.
Then `CCCCCCNCCn1cnc2c(N)ncnc21`, with inactive: 7.33%.
Take `O=C(Nc1nc2ccccc2n1CCN1CCOCC1)c1ccc(Cl)cc1`: the activation was inactive: -0.32%.
As for `Nc1cc(N)c2nonc2c1[N+](=O)[O-]`, the figure is inactive: 9.22%; as for `O=C(Cn1cnc2c(NCc3ccccc3)ncnc21)NCCN1CCOCC1`, inactive: 2.12%.
In the case of `Cc1ccccc1C(=O)Nc1cccc(NC(=O)Cn2cnc3c(=O)n(C)c(=O)n(C)c32)c1`, the activation is inactive: 0.81%.
Then `CN(C)CCn1c(COc2ccccc2)nc2ccccc21`, with inactive: 3.27%; and `CSCC[C@H](NC(=O)N1CCn2c1nc1ccccc12)C(=O)NCc1ccc(C)cc1`, with inactive: -5.19%.
Take `N=c1n(CCOc2ccccc2)c2ccccc2n1CCN1CCOCC1`: the activation is inactive: -0.94%.
Turning to `CC(C)CC(=O)NC(Sc1ccc(Cl)cc1)C(Cl)(Cl)Cl` (configuration not stated), the activation was inactive: 5.21%.
With `CCN(C(=O)Cn1cnc2c1c(=O)n(C)c(=O)n2C)C1CCCCC1`, the activation is inactive: 2%.
For the compound `CCN(C(=O)Cn1cnc2c1c(=O)n(C)c(=O)n2C)C1CCS(=O)(=O)C1` (configuration not stated), the activation is inactive: -3.79%.
Then `CCC(=O)N1c2ccc(S(=O)(=O)CCC(=O)N3CCn4c3nc3ccccc34)cc2CC1C` (configuration not stated), with inactive: 5.4%; and `Oc1ccccc1CNc1ccccn1`, with inactive: -4.59%.
Then `COCCN1CCn2c(nc3cc([N+](=O)[O-])ccc32)C1`, with inactive: 2.33%; and `O=C(NC(Sc1ccncn1)C(Cl)(Cl)Cl)c1ccccc1` (configuration not stated), with inactive: -5.28%.
As for `Cc1ccc(-c2csc(N3CCN(c4cc5c(cc4Cl)nc(-c4ccncc4)n5CCN4CCCCC4)CC3)n2)cc1`, the figure is inactive: 5.65%.
As to `CC(C)[C@H](NC(=O)N1CCn2c1nc1ccccc12)C(=O)NCC1CCCO1` (some centres not stated), the activation is inactive: -1.01%.
Then `Cn1c(=O)c2c(ncn2CC(=O)Nc2cc(S(=O)(=O)N3CCCCC3)ccc2O)n(C)c1=O`, with inactive: -3.1%.
`Nc1ncnc2c1ncn2CCN1CCCCC1`: the activation is inactive: -2.01%.
Then `O=C(Cn1c(CO)nc2ccccc21)NCCc1ccc(F)cc1`, with inactive: -3.35%; and `Cn1c(=O)c2ncn(CC(=O)NCCC3=CCCCC3)c2n(C)c1=O`, with inactive: 0.48%; and `CCOc1ccc(C(O)Cn2c(=N)n(CCN3CCCCC3)c3ccccc32)cc1` (configuration not stated), with inactive: -1.89%.
Regarding `CCCCC(=O)N/N=C(C)/C=C/c1ccccc1F`, the activation is inactive: -1.94%.
As for `CCCn1c(=O)[nH]c(=O)c2c1nc(-c1ccccc1)n2CCN1CCOCC1`, the figure is inactive: 3.32%; as for `Cn1c(=O)c2c(ncn2CC(=O)N2CCN(S(=O)(=O)c3ccc(F)cc3)CC2)n(C)c1=O`, inactive: -4.17%; as for `CCN(CC)CCn1c(/N=C/c2cc(Br)ccc2O)nc2ccccc21`, inactive: -7.63%.
As for `O=C(Cn1c(-c2cscn2)nc2ccccc21)Nc1ccc(Cl)cc1`, the activation is inactive: 11.9%.
As for `CC1CCCC(C)N1C(=O)Cn1c(SCC(=O)NCc2ccc3c(c2)OCO3)nc2ccccc21` (configuration not stated), the activation is inactive: 8.73%.
In the case of `S=C=Nc1cccc(C2(N3CCCCC3)CCCCC2)c1`, the activation was inactive: 0.05%.
For `CCCCNc1nc2ccccc2n1CC(=O)N1CCc2ccccc2C1`, the activation was inactive: -1.98%.
